Source: patent US7851505B2, “Thiotungstate analogues and uses thereof” (priority 2003, dated 2010)

test: Moisture stability of tetrathiotungstate salts; format: physicochemical; conditions: room temperature, 95% relative humidity, two weeks; purity by absorbance; * = partially soluble; ‡ = average of 2 data points

Substance	% degradation
Tetrathiotungstate, butane-1,4-bis(trimethylammonium)	5.7* %
Tetrathiotungstate, pentane-1,5-bis(trimethylammonium)	19.8* %
Tetrathiotungstate, propane-1,3-bis(trimethylammonium)	23.8* %
